Measured values taken from patent publication US8945853B2, “Detection of intracellular binding events by measuring protein abundance” (DiscoveRx Corporation, priority 2012, dated 2015).

Sequences of proteins named here, by UniProt entry; tags and fusion partners are left off.
UniProt P10415, whole entry: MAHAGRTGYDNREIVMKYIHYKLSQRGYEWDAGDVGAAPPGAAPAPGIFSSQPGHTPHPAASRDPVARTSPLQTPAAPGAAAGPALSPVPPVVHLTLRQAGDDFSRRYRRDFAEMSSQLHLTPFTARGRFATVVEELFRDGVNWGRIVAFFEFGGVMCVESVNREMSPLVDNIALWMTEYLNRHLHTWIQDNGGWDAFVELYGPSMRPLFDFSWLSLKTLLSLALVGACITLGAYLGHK

Columns and labels:
[1] = molecular target: MEK (58-371)-PL fusion (Homo sapiens, UniProt Q02750); details: CHO cells, over a period of time
[2] = molecular target: BCL-2 / PL-Bak (Homo sapiens, UniProt P10415); experiment: BCL-2 co-expressed with PL-Bak in U2OS cells, disruption by small molecules (FIG. 7C); format: cell-based; details: overnight, luminescence
Description: Interaction of BCL-2 with a peptide test compound (Bim, Bak, and Bax) was studied.
The native BCL-2 was co-expressed with each of the ProLabel fusions in U2OS cells. Small molecules that are reported to disrupt BCL-2 interactions were then applied to the cells and incubated overnight.
Cells were transduced with the indicated target PL-fusion and the untagged protein Bcl-2. The cells were treated with the indicated compounds overnight and the remaining target-PL fusion was detected by lysing the cells in the presence of EA and substrate. Luminescence was measured 30 minutes later.

Row | signal (MEK-PL fusion) compared to cells incubated with dasatinib [1] | Top (best-fit) [2] | Compound
1 | gain in signal | – | N#CC(=C(/N)Sc1ccccc1N)/C(C#N)=C(\N)Sc1ccccc1N [U0126, (2Z,3Z)-2,3-bis(amino(2-aminophenylthio)methylene)succinonitrile]
2 | – | 11081 | CC1(C)CCC(c2ccc(Cl)cc2)=C(CN2CCN(c3ccc(C(=O)NS(=O)(=O)c4ccc(N[C@H](CCN5CCOCC5)CSc5ccccc5)c(S(=O)(=O)C(F)(F)F)c4)cc3)CC2)C1 [ABT-263]
